Chains of the proteins cited; added tags and fusions are not shown. Residues count along the entry.
UniProt P97287, 152-309: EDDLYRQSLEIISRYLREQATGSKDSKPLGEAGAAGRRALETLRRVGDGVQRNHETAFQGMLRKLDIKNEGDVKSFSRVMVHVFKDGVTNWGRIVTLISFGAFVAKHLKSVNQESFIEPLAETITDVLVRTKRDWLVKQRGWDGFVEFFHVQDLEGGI

The target of the assay is GST-tagged mouse Mcl-1-(152–309) (Mus musculus, UniProt P97287). Put plainly: Fluorescence polarization competitive binding assay, GST-Mcl-1 / FITC-Bim-BH3. Also noted: reference not given here. (Fluorescence polarisation rises when a labelled molecule tumbles more slowly, as on binding a larger partner.)
In turn, `Cc1noc(C)c1-c1ccc(S(=O)(=O)NC(=O)c2ccc(CN3C(=O)C(c4ccc(F)cc4F)=C(c4ccc(F)cc4F)C3=O)cc2)cc1` [SZ32TA42, O=C(NS(C1=CC=C(C2=C(C)ON=C2C)C=C1)(=O)=O)C3=CC=C(CN4C(C(C5=C(F)C=C(F)C=C5)=C(C6=CC=C(F)C=C6F)C4=O)=O)C=C3] yielded a selectivity index of 2.3. For the molecule `Cc1nc(-c2ccccc2)sc1C(=O)NS(=O)(=O)c1ccc(CN(CCSc2ccccc2)Cc2c(F)cccc2Cl)cc1` [SZ15TA3, O=C(NS(C1=CC=C(CN(CCSC2=CC=CC=C2)CC3=C(F)C=CC=C3Cl)C=C1)(=O)=O)C4=C(C)N=C(C5=CC=CC=C5)S4], the selectivity index is reported as 6.3. Regarding `COc1cccc(CN(CCSc2ccccc2)Cc2ccc(S(=O)(=O)NC(=O)c3sc(-c4ccccc4)nc3C)cc2)c1` [SZ17TA3, O=C(NS(C1=CC=C(CN(CC2=CC(OC)=CC=C2)CCSC3=CC=CC=C3)C=C1)(=O)=O)C4=C(C)N=C(C5=CC=CC=C5)S4], the selectivity index is reported as 5.8. For `COc1cc(OC)cc(C(=O)NS(=O)(=O)c2ccc(CN(CCSc3ccccc3)Cc3ccc(S(=O)(=O)N=[N+]=[N-])cc3)cc2)c1` [SZ9TA5, O=C(NS(C1=CC=C(CN(CC2=CC=C(S(=O)(N=[N+]=[N-])=O)C=C2)CCSC3=CC=CC=C3)C=C1)(=O)=O)C4=CC(OC)=CC(OC)=C4] the value was 4.4. As for `[N-]=[N+]=NS(=O)(=O)c1ccc(CN(CCSc2ccccc2)Cc2ccc(S(=O)(=O)NC(=O)c3ccccc3)cc2)cc1` [SZ9TA1, O=C(NS(C1=CC=C(CN(CC2=CC=C(S(=O)(N=[N+]=[N-])=O)C=C2)CCSC3=CC=CC=C3)C=C1)(=O)=O)C4=CC=CC=C4], the selectivity index was determined as 1.5. The molecule `O=C(NS(=O)(=O)c1ccc(CN(CCSc2ccccc2)Cc2c(F)cccc2Cl)cc1)c1ccccc1` [SZ15TA1, O=C(NS(C1=CC=C(CN(CCSC2=CC=CC=C2)CC3=C(F)C=CC=C3Cl)C=C1)(=O)=O)C4=CC=CC=C4] returned a selectivity index of 3.0. Regarding `[N-]=[N+]=NS(=O)(=O)c1ccc(CN(CCSc2ccccc2)Cc2ccc(S(=O)(=O)NC(=O)c3cccc4ccccc34)cc2)cc1` [SZ9TA7, O=C(NS(C1=CC=C(CN(CC2=CC=C(S(=O)(N=[N+]=[N-])=O)C=C2)CCSC3=CC=CC=C3)C=C1)(=O)=O)C4=C(C=CC=C5)C5=CC=C4], the selectivity index stood at 8.1.

For the molecule `O=C(NS(=O)(=O)c1ccc(CN(CCSc2ccccc2)Cc2c(F)cccc2Cl)cc1)c1ccc(-c2ccccn2)cc1` [SZ15TA25, O=C(NS(C1=CC=C(CN(CCSC2=CC=CC=C2)CC3=C(F)C=CC=C3Cl)C=C1)(=O)=O)C4=CC=C(C5=NC=CC=C5)C=C4], the selectivity index is recorded as 3.6. For `COc1cccc(CN(CCSc2ccccc2)Cc2ccc(S(=O)(=O)NC(=O)c3cccc4ccccc34)cc2)c1` [SZ17TA7, O=C(NS(C1=CC=C(CN(CC2=CC(OC)=CC=C2)CCSC3=CC=CC=C3)C=C1)(=O)=O)C4=C(C=CC=C5)C5=CC=C4] the value was 3.6; for `O=C(NS(=O)(=O)c1ccc(CN(CCSc2ccccc2)Cc2c(F)cccc2Cl)cc1)c1ccc(CCc2ccccn2)cc1` [SZ15TA17, O=C(NS(C1=CC=C(CN(CCSC2=CC=CC=C2)CC3=C(F)C=CC=C3Cl)C=C1)(=O)=O)C4=CC=C(CCC5=NC=CC=C5)C=C4], 2.8.

The record behind these values is publication PMC10620989, “Going beyond Binary: Rapid Identification of Protein–Protein Interaction Modulators Using a Multifragment Kinetic Target-Guided Synthesis Approach” (Journal of Medicinal Chemistry, 2023).
